The results in this text go back to PubChem BioAssay (Tox21).

Amino acid sequences for entries named in this document (tags omitted).
UniProt P22303, whole entry: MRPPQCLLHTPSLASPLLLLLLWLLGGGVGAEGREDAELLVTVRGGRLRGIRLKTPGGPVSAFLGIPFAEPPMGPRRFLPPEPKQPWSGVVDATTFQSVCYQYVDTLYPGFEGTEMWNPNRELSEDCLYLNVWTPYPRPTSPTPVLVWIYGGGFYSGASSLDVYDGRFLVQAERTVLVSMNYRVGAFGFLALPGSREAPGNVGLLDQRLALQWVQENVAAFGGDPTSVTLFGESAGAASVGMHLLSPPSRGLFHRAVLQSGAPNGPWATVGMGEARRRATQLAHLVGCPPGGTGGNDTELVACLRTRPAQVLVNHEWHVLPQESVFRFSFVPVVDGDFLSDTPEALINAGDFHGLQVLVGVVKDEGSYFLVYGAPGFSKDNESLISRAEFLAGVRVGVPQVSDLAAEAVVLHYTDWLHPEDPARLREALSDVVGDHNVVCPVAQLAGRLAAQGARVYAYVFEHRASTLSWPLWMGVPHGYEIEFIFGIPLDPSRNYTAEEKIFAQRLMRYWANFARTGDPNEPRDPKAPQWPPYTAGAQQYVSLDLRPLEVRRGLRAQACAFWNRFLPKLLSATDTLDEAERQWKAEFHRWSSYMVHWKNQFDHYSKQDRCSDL

The list shows a part of the results, in another mix than the full data. Results filed as inconclusive are left out. A call without a number means that no potency is given here. The source made the active and inactive calls. Calls follow the shape of the full dose curve.
Potency is read from the fitted curve at half-maximal effect.

The test addresses Acetylcholinesterase (Homo sapiens) (UniProt P22303). In words: Acetylcholinesterase (AChE) small molecule antagonists: fluorescence cell-based qHTS assay (AID 1347398). Also: nearly all actives have a fitted effect of over 50% in size. As to conditions: SH-SY5Y cells; Potency: AChE activity; series mostly up to 115 µM. The source says:
National Center for Advancing Translational Sciences [NCATS]
Division of Preclinical Innovation [DPI]
U.S. Environmental Protection Agency [EPA]
National Institutes of Environmental Health Sciences [NIEHS]
National Toxicology Program [NTP]
U.S. Food and Drug Administration [FDA]
Acetylcholinesterase (AChE) is the primary cholinesterase in the body that hydrolyzes a key neurotransmitter, acetylcholine. Inhibition of AChE activity can lead to neurotoxicity. Known inhibitors of AChE include organophosphorous pesticides (OP), chemical warfare agents, drugs, and various phytochemicals.
A homogenous cell-based assay using Amplitetrade mark Fluorimetric Acetylcholinesterase Assay Kit *Green Fluorescence* (AAT Bioquest, Sunnyvale, CA) was used to evaluate the chemicals in the Tox21 10K library that inhibit AChE activity. The assay uses Thiolite Green to quantify the thiocholine produced from the hydrolysis of acetylthiocholine by AChE from the SH-SY5Y cells. AChE can hydrolyze acetylthiocholine to create thiocholine. Thiolite Green is fluorescent when reacting with thiocholine. It has spectral properties similar to those of fluorescein. The fluorescence intensity of Thiolite Green is used to measure AChE activity. Its signal can be easily read by a fluorescence microplate reader at Ex/Em = 490/520 nm.
Tox21 Assay Protocol Summary:
For cell-based AChE assay, 2,000 SH-SY5Y cells in 4 uL/well were dispensed into black, clear-bottom 1536-well plates using a Multidrop Combi (Thermo Scientific) dispenser. The assay plates were incubated overnight at 37 C to allow cells to attach to the wells, followed by the transfer of 23 nL compound or DMSO (vehicle control) by a Pintool station (Wako Automation, CA). The plates were incubated for 30 min at 37 C and 5% CO2, followed by the addition of 4 uL of detection cocktail solution (ThioliteGreen, acetylthiocholine) into each well using Flying Reagent Dispenser (Beckman Coulter, CA) and then following 40 min incubation at room temperature. Fluorescent intensity (Ex/Em = 490/520 nm) was measured using an Envision plate reader (PerkinElmer, MA).
(In general: Quantitative high-throughput screening tests each substance at several concentrations.)
Consider `CP(=O)(O)OCCC[Si](O)(O)O`, for which the Potency entry is “inactive”. In the case of `N#CBr`, the Potency entry is “inactive”.

Consider `CC(C)N(CCO)C(C)C`, for which the Potency entry is “inactive”. Then `COP(C)(=O)OC`, with “inactive”.

For `OCCSCCO`, the Potency entry is “inactive”.

Consider `Cc1ccc([N+](=O)[O-])c([N+](=O)[O-])c1`, for which the Potency entry is “inactive”. Regarding `CCN(CC)CCCl`, the Potency result was “inactive”. Then `O=[N+]([O-])OCC(CO[N+](=O)[O-])(CO[N+](=O)[O-])CO[N+](=O)[O-]`, with “inactive”; and `ClCCOP(OCCCl)OCCCl`, with “inactive”; and `Cc1c([N+](=O)[O-])cccc1[N+](=O)[O-]`, with “inactive”. As for `Cc1cccc([N+](=O)[O-])c1[N+](=O)[O-]`, the Potency entry is “inactive”.

For the compound `C/C1=C2N=C(/C=C3N=C(/C(C)=C4\[N-][C@@](C)([C@@H]5N=C1[C@](C)(CCC(=O)NC[C@@H](C)OP(=O)([O-])O[C@H]1[C@@H](O)[C@@H](n6cnc7cc(C)c(C)cc76)O[C@@H]1CO)[C@H]5CC(N)=O)[C@@](C)(CC(N)=O)[C@@H]4CCC(N)=O)[C@@](C)(CC(N)=O)[C@@H]\3CCC(N)=O)C(C)(C)[C@@H]/2CCC(N)=O.[C-]#N.[Co+3]`, the Potency result was “inactive”. For the compound `Cc1ccc([N+](=O)[O-])cc1[N+](=O)[O-]`, the Potency is active: 31.3 µM.

Turning to `ClCCNCCCl`, the Potency result is “inactive”. As to `Nc1cc([N+](=O)[O-])cc([N+](=O)[O-])c1O`, the Potency entry is “inactive”.

As to `CN(C)CCCl`, the Potency result is “inactive”. For the compound `O=[N+]([O-])[O-].[NH4+]`, the Potency result was “inactive”. With `CCOP(=O)(CC)OCC` the entry was “inactive”; with `[NH4+].[O-][Cl+3]([O-])([O-])[O-]`, “inactive”; with `N=C(N)N[N+](=O)[O-]`, “inactive”.

With `CCOC(=O)N1CCC(=O)CC1`, the Potency result is “inactive”. In the case of `CCC(=O)N(c1ccccc1)C1CCNCC1`, the Potency result was “inactive”. As to `CC(C)OP(OC(C)C)OC(C)C`, the Potency result is “inactive”.

With `CCOP(=O)(Cl)Cl`, the Potency entry is “inactive”.
